We go through one substance from paper PMC6154603, “Study on the Rationality for Antiviral Activity of Flos Lonicerae Japonicae-Fructus Forsythiae Herb Couple Preparations Improved by Chito-Oligosaccharide via Integral Pharmacokinetics” (Molecules : A Journal of Synthetic Chemistry and Natural …, 2017).

Series [1] is described as follows: In vivo pharmacokinetic study of FLJ-FF herb couple preparations with or without COS. More on the design: species or system rats. Conditions: for AUC (Absorption Enhancer) / AUC (Control): rats; for AUC value increased by: addition of COS 25 mg/kg to rats.
The subject of series [2] is Caco-2 cell. In words: In vitro Caco-2 cell transport model. The note with it: Shuang-Huang-Lian, with 0.1% (w/v) of COS vs control. Format: in vitro ADME, human.
Series [3] in a line: Pharmacokinetics of caffeic acid derivatives after oral administration of the FLJ-FF herb couple. The class given is in vivo. Conditions: rats, Table S2.

Take forsythoside B: the “AUC (Absorption Enhancer)” value was 1868.2 ± 142.50 in series [1] (Fufang Qin-Lan Oral Liquid with COS 25 mg/kg), 2532.0 ± 183.95 in series [1] (Qin-Re-Jie-Du Oral Liquid with COS 25 mg/kg), 14,694 ± 2047.0 in series [1] (Shuang-Huang-Lian Oral Liquid with COS 25 mg/kg) and 12,440 ± 1564.9 in series [1] (Yin-Qiao-Jie-Du Oral Liquid with COS 25 mg/kg). In addition, the “AUC (Control)” value came to 1416.5 ± 252.44 in series [1] (Fufang Qin-Lan Oral Liquid, 48 g raw medicine per kilogram); 1955.0 ± 716.78 in series [1] (Qin-Re-Jie-Du Oral Liquid, 160 g raw medicine per kilogram); 3685.0 ± 328.86 in series [1] (Shuang-Huang-Lian Oral Liquid, 32 g raw medicine per kilogram); 6678.3 ± 850.79 in series [1] (Yin-Qiao-Jie-Du Oral Liquid, 64 g raw medicine per kilogram). The “AUC value increased by” value in series [1] (Fufang Qin-Lan) was 0.32 fold; in series [1] (Qin-Re-Jie-Du), 0.30 fold; in series [1] (Shuang-Huang-Lian), 2.99 fold. Besides, the “highest Papp-value increase” value in series [2] is given as 2.43 fold. In series [3], this substance returned an AUC0-t of 4292.70 ± 153.20 ng·min/mL. The “AUC0-∞” value in series [3] amounted to 4315.40 ± 183.84 ng·min/mL. Further, the Cmax (in general, the maximum level reached in the sampled fluid or tissue) in series [3] turned out to be 51.96 ± 14.52 ng/mL. This substance also showed an MRT0-t in series [3] of 202.10 ± 57.04 min. Besides, the T1/2z in series [3] is 245.33 ± 55.52 min.
